Measurements from patent US20110195432A1, “METHODS FOR THE SELECTION OF THERAPEUTIC TREATMENTS FOR CANCER” (priority 2008, published 2011).

Target: T1, recombinant HDAC6 (Homo sapiens, UniProt Q9UBN7)
T1 sequence (Q9UBN7 1-1215): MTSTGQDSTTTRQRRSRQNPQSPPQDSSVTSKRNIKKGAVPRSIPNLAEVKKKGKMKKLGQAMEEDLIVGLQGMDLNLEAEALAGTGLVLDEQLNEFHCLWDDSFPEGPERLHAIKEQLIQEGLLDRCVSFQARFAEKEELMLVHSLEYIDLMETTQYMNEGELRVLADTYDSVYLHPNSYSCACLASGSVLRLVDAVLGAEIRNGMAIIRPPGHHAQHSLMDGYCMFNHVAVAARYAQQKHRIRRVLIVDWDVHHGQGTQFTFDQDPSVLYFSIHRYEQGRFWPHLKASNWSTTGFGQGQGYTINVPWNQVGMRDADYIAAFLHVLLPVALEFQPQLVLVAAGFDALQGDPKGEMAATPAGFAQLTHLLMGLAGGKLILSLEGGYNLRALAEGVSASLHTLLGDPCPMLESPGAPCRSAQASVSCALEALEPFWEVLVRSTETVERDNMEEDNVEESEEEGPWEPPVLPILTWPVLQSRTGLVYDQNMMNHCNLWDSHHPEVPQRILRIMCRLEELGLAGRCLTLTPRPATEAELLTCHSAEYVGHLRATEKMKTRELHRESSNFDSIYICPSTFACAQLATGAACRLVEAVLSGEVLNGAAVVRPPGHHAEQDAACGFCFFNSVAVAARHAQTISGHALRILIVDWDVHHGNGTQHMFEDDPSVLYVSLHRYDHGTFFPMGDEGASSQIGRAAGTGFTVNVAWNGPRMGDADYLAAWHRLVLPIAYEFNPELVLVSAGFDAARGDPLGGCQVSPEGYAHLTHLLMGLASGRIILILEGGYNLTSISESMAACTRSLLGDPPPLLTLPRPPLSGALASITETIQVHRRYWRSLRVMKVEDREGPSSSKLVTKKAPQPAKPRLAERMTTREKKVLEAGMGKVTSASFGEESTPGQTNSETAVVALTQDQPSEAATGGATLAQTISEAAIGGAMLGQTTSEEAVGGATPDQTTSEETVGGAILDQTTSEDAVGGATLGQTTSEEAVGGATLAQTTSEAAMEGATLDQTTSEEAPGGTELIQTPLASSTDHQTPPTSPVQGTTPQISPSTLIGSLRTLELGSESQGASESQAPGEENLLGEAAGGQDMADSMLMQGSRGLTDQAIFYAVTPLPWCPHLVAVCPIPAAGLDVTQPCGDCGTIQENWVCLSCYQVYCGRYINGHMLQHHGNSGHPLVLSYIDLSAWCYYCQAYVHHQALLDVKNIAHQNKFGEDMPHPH
Settings: cell-free; 7.5 or 15 μM sulforaphane, or 400 nM TSA; versus vehicle-treated HDAC6 control

- HDAC6 deacetylase activity on tubulin: decreased HDAC6 deacetylase activity
SMILES: CC(/C=C/C(=O)NO)=C\[C@@H](C)C(=O)c1ccc(N(C)C)cc1 [TSA, trichostatin A]
